According to ChEMBL document CHEMBL1154690, “Identification of novel, selective, and stable inhibitors of class II histone deacetylases. Validation studies of the inhibition of the enzymatic activity of HDAC4 by small molecules as a novel approach for cancer therapy” (J Med Chem, 2009):

Experiment: Selectivity ratio of IC50 for Escherichia coli HDAC4 WT (653-1084) to IC50 for HDAC1

- Ratio IC50: 40
Structure (SMILES): O=C(O)c1cccc(-c2ccc(C(=O)C(F)(F)F)s2)c1
